AlphaSeq binding of Ab-14 light chain variants to a spike HR2 peptide

Reference: Li et al. 2023, doi:10.1038/s41467-023-39022-2. File: FLAb, binding data.

Target: peptide PDVDLGDISGINAS, taken from heptad repeat 2 (HR2) of SARS-CoV-2 spike.

The variants keep the heavy chain, the linker and the frameworks of Ab-14 (scFv order VH, a 15-residue (Gly4Ser)3 linker, VL).
VH: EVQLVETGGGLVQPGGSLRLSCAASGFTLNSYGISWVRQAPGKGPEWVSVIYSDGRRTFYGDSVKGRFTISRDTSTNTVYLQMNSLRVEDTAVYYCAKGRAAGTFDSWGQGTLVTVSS
VL: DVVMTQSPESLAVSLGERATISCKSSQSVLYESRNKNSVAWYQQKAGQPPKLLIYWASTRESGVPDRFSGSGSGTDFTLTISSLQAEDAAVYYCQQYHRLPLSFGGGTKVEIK

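Phage display of a naive human antibody library on the peptide gave the parent. The variants were designed computationally from a first round of random CDR variants and then made and measured. Several design methods are mixed in this list. AlphaSeq pools MATa yeast showing the antibodies with MATalpha yeast showing the peptide. Mating (16 h, 30 °C) was followed by selection of diploids and sequencing of their barcodes. A regression on co-assayed BCL2-family reference pairs converts the normalised counts of each replicate to an apparent Kd. Mating was done six times.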

The parent's light chain CDRs are KSSQSVLYESRNKNSVA, WASTRES, QQYHRLPLS; each variant's own CDRs replace them letter for letter.
This list holds designs with more than six substitutions.
Each Kd is an estimate from the mating assay, the geometric mean of the replicates in which the pair was seen; lower is stronger.
Where no diploid with the target was found in any replicate, the entry reads "nd": below detection, most likely a poor binder, though not proof of it.
Empty control strains, which show no peptide, gave a signal in 4% of pairings with all light chain designs; the median was 430 nM and 95% of these signals were weaker than 38 nM. No background was subtracted. For each scFv, signals with the empty controls are counted beside the result.
The authors averaged sequences with at least three values out of six and counted those with two or fewer as poor binders.
Values of this round are not directly comparable with the first-round values of the same sequences.

- IISDLMLYGSRNKNPIA | NASTREY | QQYHRLPLE -> 6.8 nM (6 of 6 replicates; controls 0 of 18)
- TISQMSQTFSQTINNVA | EVSTRLN | QQYDRLPLA -> 7.1 nM (6 of 6 replicates; controls 4 of 18)
- HMSMLTLMGMKQRNSVA | QMTMREN | QQYDRLPLM -> 11 nM (6 of 6 replicates; controls 0 of 18)
- RLTEHTYMRAYANAAVA | DASTRND | QQYHRLPLE -> 2.2 nM (6 of 6 replicates; controls 1 of 18)
- MISDMGLHDSRMQNSVA | NNSTREA | QQYERLPLS -> 160 nM (3 of 6 replicates; controls 0 of 18)
- ILDQSHLYESRNKNSVA | NANTREE | QQYHRLPLS -> 380 pM (6 of 6 replicates; controls 2 of 18)
- KLGMWTYGPTEAKYNVA | EDEMRWH | QQYDRLPLI -> nd (0 of 6 replicates; controls 0 of 18)
- SVTNETDGNGLKWNSVA | DAAELMT | QDYFRLPLT -> 32 nM (6 of 6 replicates; controls 0 of 18)
- KLGETYEGNKRQRNSVA | HNSMREN | QQYDRLPLE -> 70 nM (3 of 6 replicates; controls 1 of 18)
- VLGEMYGNMVMKHSSIA | DNTTRQD | QQYDRLPLS -> 970 nM (3 of 6 replicates; controls 0 of 18)
- MIGQLYNMGTFAINSVA | QASIRNE | QQYDRLPLI -> 8.0 nM (6 of 6 replicates; controls 1 of 18)
- MFEEYQSYGAANLNAVA | DANCTMF | QQYYRLPIS -> 43 nM (6 of 6 replicates; controls 3 of 18)
- KFSQSNPYETRNKNSVA | EASQREE | QQYHRLPLS -> 810 pM (6 of 6 replicates; controls 1 of 18)
- KQSPQDLYQSRMKNQVA | DASTRES | QQYHRLPLS -> 270 pM (6 of 6 replicates; controls 0 of 18)
- KLLQTVMNGRSNRNNVA | HMTMRED | QQYFRLPLS -> 34 nM (6 of 6 replicates; controls 1 of 18)
- KVWPSELGEERNKMSVA | QASTRES | QQYHRLPLS -> 2.9 nM (6 of 6 replicates; controls 1 of 18)
- MVTQMAMSGMTNKRSVA | NAEQRED | QQYHRLPLI -> 2.9 nM (6 of 6 replicates; controls 0 of 18)
- MISQLYNMGSFAINSVA | QASQRNA | QQYDRLPLE -> 30 nM (6 of 6 replicates; controls 1 of 18)
- HVHMECAEEKNIKYNIA | DASMRLA | QQYVRLPLG -> 4.1 nM (6 of 6 replicates; controls 0 of 18)
- KVSCSVMLESRNWNAVA | EASTRES | QDYHRLPLS -> 5.0 nM (6 of 6 replicates; controls 0 of 18)
- KLEQLYYYGSRNKNSVA | QASTRES | QQYHRLPLS -> 1.5 nM (6 of 6 replicates; controls 2 of 18)
- KFSQSELYGERMKNSVA | NASQRLS | QQYHRLPLS -> 1.3 nM (6 of 6 replicates; controls 6 of 18)
- KLLQVTENMQLNRNSVA | HMSTRED | QQYHHLPLS -> 2.6 nM (6 of 6 replicates; controls 1 of 18)
- KLQMSEGYESRNKNSVA | MASTRCD | QQYHRLPLS -> 940 pM (6 of 6 replicates; controls 0 of 18)
- TLGMQPTEMRDNKHAVA | DNNQRDR | QSYMRLPLS -> 190 nM (1 of 6 replicates; controls 0 of 18)
- TISQSVLMTGLNRNSVA | QATERIE | QQYHRLPLS -> 1.6 nM (6 of 6 replicates; controls 1 of 18)
- TISQSWLFESRNKNNVA | EMSTREN | QDYDRLPLS -> 2.8 nM (6 of 6 replicates; controls 0 of 18)
- MITAAMNAYNGSFSSVA | DKAISVN | QQYHRLPLS -> 510 nM (3 of 6 replicates; controls 4 of 18)
- KILQEIENQSYNRNSVA | HSTTRED | QSYHRLPLS -> 7.7 nM (6 of 6 replicates; controls 0 of 18)
- KLSGATRLESQNKASVA | ENSTRGE | QQYFRLPLS -> 3.1 nM (6 of 6 replicates; controls 0 of 18)
- KVSPSMWYESRNKNAVA | DASQRES | QQYHRLPLQ -> 310 pM (6 of 6 replicates; controls 1 of 18)
- KIGHGLTTEQRNKNSVA | QTETRVS | QHYHRLPLS -> 5.6 nM (6 of 6 replicates; controls 1 of 18)
- VLSDTIENQYDEADNIA | DKTETSK | QQYARLPLS -> 31 nM (6 of 6 replicates; controls 0 of 18)
- ALSQSMDMTSRNVNSVA | DLTCREN | QQYHRLPLS -> 4.6 nM (6 of 6 replicates; controls 5 of 18)
- KLSQSVLMESRMVNNVA | NASQREE | QQYHRLPLS -> 1.1 nM (6 of 6 replicates; controls 0 of 18)
- KLSMSVRMESFNKNSVA | ENSTREA | QDYHRLPLS -> 83 nM (5 of 6 replicates; controls 1 of 18)
- QLMEEQSMRTEATRNIA | QGEQKVH | QQYFRLPLA -> 2.1 nM (6 of 6 replicates; controls 1 of 18)
- RISAHVYDETNTQENVA | QEHIRAN | QSYSRLPLS -> 300 nM (6 of 6 replicates; controls 0 of 18)
- SLAESVHMESRNKNSVA | DNSTREQ | QHYHRLPLS -> 26 nM (6 of 6 replicates; controls 0 of 18)
- KLSQSVLFWGHAINSVA | EMETREA | QQYDRLPLS -> 88 nM (5 of 6 replicates; controls 0 of 18)
- KISMMYRFESTANNSIA | EMTTRAE | QSYHRLPLS -> 18 nM (4 of 6 replicates; controls 0 of 18)
- QLGGVQDMTSKNKNSVA | EQSTREN | QQYHRLPLS -> 1.6 nM (6 of 6 replicates; controls 0 of 18)
- MISQLYNMGTFAINSVA | QAEIRNA | QQYDRLPLA -> 15 nM (6 of 6 replicates; controls 0 of 18)
- KLSWLSLHGDLRWSAVA | NEVVRLA | QQYFRLPIQ -> 22 nM (1 of 6 replicates; controls 0 of 18)
- KIGMTLNQLMRKKNNVA | DLVEREN | QQYFRLPLS -> 5.7 nM (6 of 6 replicates; controls 0 of 18)
- KDQGSQLYESRNKNAVA | NASTRCD | QQYHRLPLS -> 720 pM (6 of 6 replicates; controls 1 of 18)
- MLSQMTGLGMKAKNSVA | QANMRFD | QQYHRLPLM -> 5.2 nM (6 of 6 replicates; controls 1 of 18)
- KLHAYTQGFKTADASIA | EISYRAI | QQYGRLPLS -> 3.4 µM (2 of 6 replicates; controls 2 of 18)

Excerpt, the first 7 entries:

CDR-L1	CDR-L2	CDR-L3	apparent Kd	detected	empty controls
IISDLMLYGSRNKNPIA	NASTREY	QQYHRLPLE	6.8 nM	6/6	0/18
TISQMSQTFSQTINNVA	EVSTRLN	QQYDRLPLA	7.1 nM	6/6	4/18
HMSMLTLMGMKQRNSVA	QMTMREN	QQYDRLPLM	11 nM	6/6	0/18
RLTEHTYMRAYANAAVA	DASTRND	QQYHRLPLE	2.2 nM	6/6	1/18
MISDMGLHDSRMQNSVA	NNSTREA	QQYERLPLS	160 nM	3/6	0/18
ILDQSHLYESRNKNSVA	NANTREE	QQYHRLPLS	380 pM	6/6	2/18
KLGMWTYGPTEAKYNVA	EDEMRWH	QQYDRLPLI	nd	0/6	0/18